Here are results for one substance from patent publication US20230228654A1, “Blood Sampling Device and Method for PEth Measurement” (CAPITAINER AB, priority 2020, published 2023).

The data set can be described thus: Withstanding the temperature during production.

In the case of sodium metavanadate [NaVO3], the temperature stability entry is given as “withstand the temperature during production”.
